Literature values, collected in article PMC3228891 (2011).

Target: H1 receptor
Conditions: read-out: Ki H1 receptor (ChEMBLdb); known activity in ChEMBLdb ref 28; cited from earlier work

In the case of `CN(C)CCCN1c2ccccc2Sc2ccccc21` [Promazine], the Ki is given as at most 10 µM.
